{
  "source": "ChEMBL document CHEMBL1649095",
  "about": "“A κ Opioid Pharmacophore Becomes a Spinally Selective κ-δ Agonist When Modified with a Basic Extender Arm” (2011)",
  "key": {"[1]": {"test_system": "Mus musculus", "assay": "Antinociceptive activity in icv dosed HSD:ICR(CD1) mouse by tail flick test", "assay_type": "functional", "conditions": "strain HSD:ICR(CD1)"}, "[2]": {"test_system": "Mus musculus", "assay": "Antinociceptive activity in intrathecally dosed HSD:ICR(CD1) mouse by tail flick test", "conditions": "strain HSD:ICR(CD1)"}, "[3]": {"test_system": "Mus musculus", "assay": "Potency index, ratio of antinociceptive ED50 in icv dosed HSD:ICR(CD1) mouse to antinociceptive ED50 in intrathecally dosed HSD:ICR(CD1) mouse"}},
  "data": [
    {"smiles": "CN(C(=O)Cc1ccc(Cl)c(Cl)c1)[C@H](CN1CCCC1)c1ccccc1", "values": [
      {"measurement": "ED50", "setting": "[1]", "value": 0.58, "unit": "nmol"},
      {"measurement": "ED50", "setting": "[2]", "value": 0.55, "unit": "nmol"},
      {"measurement": "Ratio ED50", "setting": "[3]", "value": 1.05}
    ]}
  ]
}
